The assay deals with dopamine D3 receptor (Homo sapiens, UniProt P35462). The note with it: Compound 2.

Amino acid sequences for entries named in this document (tags omitted).
UniProt P35462, whole entry, species assumed: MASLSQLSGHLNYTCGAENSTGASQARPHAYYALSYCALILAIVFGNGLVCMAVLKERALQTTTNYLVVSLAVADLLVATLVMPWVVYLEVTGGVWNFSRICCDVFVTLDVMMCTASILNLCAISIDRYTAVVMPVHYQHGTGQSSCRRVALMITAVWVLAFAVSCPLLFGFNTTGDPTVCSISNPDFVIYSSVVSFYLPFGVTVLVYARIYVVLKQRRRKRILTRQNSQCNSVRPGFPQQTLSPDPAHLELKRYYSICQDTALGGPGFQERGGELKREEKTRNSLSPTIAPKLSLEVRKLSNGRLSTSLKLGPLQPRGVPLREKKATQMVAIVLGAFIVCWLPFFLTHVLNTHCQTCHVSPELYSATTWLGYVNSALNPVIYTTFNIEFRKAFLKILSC

Molecules are shown by their SMILES.

Experimental findings from patent EP3952872B1, “CARBAMOYL CYCLOHEXANE DERIVATIVES FOR TREATING AUTISM SPECTRUM DISORDER” (Richter Gedeon Nyrt., priority 2019, dated 2020) are described below.

As to `O=C(N[C@H]1CC[C@H](CCN2CCN(c3cccc(Cl)c3Cl)CC2)CC1)N1CCOCC1` [Compound 2, trans-N-(4-{2-[4-(2,3-dichloro-phenyl)-piperazine-1-yl]-ethyl}-cyclohexyl)-morpholine-4 carboxamide], the “functional character at the dopamine D3 receptor” value is on record as “partial agonist”.
